# Biological target: aminopeptidase N (Homo sapiens, UniProt P15144)
# Protein sequences, listed by entry. Tags and fused reporters are not part of them. Residues count along the entry.
# UniProt P15144, 2-967 limits assumed: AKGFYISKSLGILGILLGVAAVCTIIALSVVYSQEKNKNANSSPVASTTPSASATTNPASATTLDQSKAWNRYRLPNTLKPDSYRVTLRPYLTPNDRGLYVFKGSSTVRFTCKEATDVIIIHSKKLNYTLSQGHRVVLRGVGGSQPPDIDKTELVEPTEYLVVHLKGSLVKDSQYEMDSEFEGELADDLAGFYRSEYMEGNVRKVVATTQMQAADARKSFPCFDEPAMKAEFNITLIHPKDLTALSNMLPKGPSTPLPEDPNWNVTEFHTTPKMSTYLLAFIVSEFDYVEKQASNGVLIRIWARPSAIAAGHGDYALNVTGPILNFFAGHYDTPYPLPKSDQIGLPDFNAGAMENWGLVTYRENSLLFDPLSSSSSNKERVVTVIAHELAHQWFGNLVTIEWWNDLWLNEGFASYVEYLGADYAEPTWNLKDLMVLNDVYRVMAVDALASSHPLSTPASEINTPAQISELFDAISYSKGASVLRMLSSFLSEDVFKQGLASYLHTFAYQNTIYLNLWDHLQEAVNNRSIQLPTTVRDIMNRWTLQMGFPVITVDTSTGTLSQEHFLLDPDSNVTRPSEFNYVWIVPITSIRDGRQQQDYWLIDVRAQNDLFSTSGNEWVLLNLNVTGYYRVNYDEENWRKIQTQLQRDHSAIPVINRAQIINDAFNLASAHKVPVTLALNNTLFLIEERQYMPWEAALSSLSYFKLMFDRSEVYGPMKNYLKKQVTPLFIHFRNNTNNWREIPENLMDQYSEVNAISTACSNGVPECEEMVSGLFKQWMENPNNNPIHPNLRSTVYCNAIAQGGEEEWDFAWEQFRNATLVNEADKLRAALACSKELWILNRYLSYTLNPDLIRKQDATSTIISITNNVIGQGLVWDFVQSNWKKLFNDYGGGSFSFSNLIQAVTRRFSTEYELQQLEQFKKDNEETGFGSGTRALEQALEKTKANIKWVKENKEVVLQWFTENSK
# Assay: Inhibitory effect to aminopeptidase N (L-alanine-7-amido-4-methylcoumarin substrate, MOLT-4 cells, fluorescence)
# Format: biochemical
# Settings: based on fluorescence intensity of the control fraction (Table 13, Test Example 9)
row,Structure (SMILES),Aminopeptidase N inhibiting activity IC50 [µg/mL]
1,C[C@H](c1ccc(N)cc1)N1C(=O)c2c(F)c(F)c(F)c(F)c2C1=O,5
2,C[C@@H](c1ccc([N+](=O)[O-])cc1)N1C(=O)c2c(F)c(F)c(F)c(F)c2C1=O,5.3
3,Cc1ccc([C@@H](C)N2C(=O)c3c(F)c(F)c(F)c(F)c3C2=O)cc1,9.5

# Results, then the molecule that gave them:
row,Aminopeptidase N inhibiting activity IC50 [µg/mL],Structure (SMILES)
1,3.6,CCCC(=O)Nc1ccc([C@H](C)N2C(=O)c3c(F)c(F)c(F)c(F)c3C2=O)cc1
2,80,CCCC(=O)Nc1ccc([C@@H](C)N2C(=O)c3c(F)c(F)c(F)c(F)c3C2=O)cc1

# Source: US6429212B1, “Medicinal composition” (Ishihara Sangyo Kaisha Ltd., priority 1996, dated 2002)
